# Laboratory results taken from patent US8927715B2, “Inhibitors of 11β-hydroxysteroid dehydrogenase type 1” (Vitae Pharmaceuticals, Inc., priority 2006, dated 2015).
# Chains of the proteins cited; added tags and fusions are not shown.
# UniProt P28845, whole entry: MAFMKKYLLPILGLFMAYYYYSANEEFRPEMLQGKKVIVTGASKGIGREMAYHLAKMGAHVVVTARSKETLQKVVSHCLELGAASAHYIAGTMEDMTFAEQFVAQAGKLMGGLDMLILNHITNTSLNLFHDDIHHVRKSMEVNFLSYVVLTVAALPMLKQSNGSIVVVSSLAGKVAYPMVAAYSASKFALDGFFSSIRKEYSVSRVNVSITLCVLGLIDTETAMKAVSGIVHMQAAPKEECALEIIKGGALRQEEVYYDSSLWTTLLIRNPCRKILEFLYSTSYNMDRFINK
# pIC50: −log10 of the molar value.
# Target: T1, human 11β-HSD1 (Homo sapiens, UniProt P28845)
# Test: Scintillation Proximity Assay: inhibition of purified 11β-HSD1 (Biological Test Example 1)
# Details: read-out: Biological Test Example 1 (IC50 class); purified recombinant 11β-HSD1, SPA
row,pIC50,Structure (SMILES)
1,> 7.30,"COC(=O)CC1CC2(CCN(C(=O)NC3C4CC5CC(C4)CC3C5)CC2)c2ccccc21 (single isomer, unassigned)"

# Target: T1, human 11β-HSD1
# Test: Inhibition of a microsomal preparation of 11β-HSD1, SPA (Biological Test Example 2)
# Type: biochemical
# Details: read-out: Biological Test Example 2 (IC50 class)
row,Structure (SMILES),pIC50
1,"CCOC(=O)C=C1CC2(CCN(C(=O)NC3C4CC5CC(C4)CC3C5)CC2)c2c(Br)cccc21 (single isomer, unassigned)",> 7.30
2,"CNCCN(C)C(=O)CC1CC2(CCN(C(=O)NC3C4CC5CC(C4)CC3C5)CC2)c2c(Br)cccc21 (single isomer, unassigned)",> 7.30
3,"O=C(O)CC1CC2(CCN(C(=O)NC3C4CC5CC(C4)CC3C5)CC2)c2c(Br)cccc21 (single isomer, unassigned)",> 7.30
4,"O=C(O)CC1CC2(CCN(C(=O)OC3C4CC5CC(C4)CC3C5)CC2)c2c(Br)cccc21 (single isomer, unassigned)",> 7.30
5,"CN1C(=S)c2ccccc2C12CCN(C(=O)NC1C3CC4CC(C3)CC1C4)CC2 (stereo not shown) [103, Step 1 Product]",> 7.30

# Results, then the molecule that gave them:
row,pIC50,Structure (SMILES)
1,> 7.30,"O=C(O)CC1CC2(CCN(C(=O)NC3C4CC5CC3CC(F)(C5)C4)CC2)c2c(Br)cccc21 (single isomer, unassigned)"
2,> 7.30,"O=C(O)CC1CC2(CCN(C(=O)NC3C4CC5CC3CC(O)(C5)C4)CC2)c2c(Br)cccc21 (single isomer, unassigned) [75 Isomer 1]"
3,> 7.30,"O=C(O)CC1CC2(CCN(C(=O)NC3C4CC5CC3CC(O)(C5)C4)CC2)c2c(Br)cccc21 (single isomer, unassigned) [75 Isomer 2]"
4,6.00 to 7.30,"O=C(O)CC1CC2(CCN(C(=O)NC3C4CC5CC3CC(O)(C5)C4)CC2)c2c(Br)cccc21 (single isomer, unassigned) [75 Isomer 3]"
